Experiment: pH of the acid forming the acid component (pH meter, 20°C)
Assay type: physicochemical
Conditions: organic acid 1.0 g in purified water 1.0 L, inorganic acid 0.1-mol/L aqueous solution, for a salt, pH of the acid forming it
Protocol: No particular limitation is imposed on the acidity of the acid forming the acid component (B), which is specifically the pH of the acid forming the acid component (B) at 20°C, is for example, 1 to 6. […] When the acid component (B) is an inorganic acid, the pH corresponds to a value measured by use of a […] aqueous solution. In the case of a metal salt of the acid, the pH corresponds to the pH of the acid forming the metal salt thereof.
The pH of a liquid prepared by mixing an acid (1.0 g) and purified water (1.0 L) was measured at 20°C by means of a pH meter (product of HORIBA, Ltd.). In the case of an organic acid salt, the pH of the acid forming the salt was measured.
The pH of a 0.1-mol/L aqueous solution of the acid employed was measured at 20°C in the same manner as employed above.

tin bis(2-ethylhexanoate) [b-5] gave a pH of 3.

From patent EP4786540A1, “POLYMER COMPOSITION AND METHOD FOR PRODUCING SAME, FORMULATION, CROSSLINKED PRODUCT, AND TIRE” (priority 2023, dated 2025)
